Key:
Thermolysin [1] = target: T1, Thermolysin (Bacillus thermoproteolyticus, UniProt P00800); test: Inhibition of Bacillus thermoproteolyticus thermolysin pretreated with compound for 1 hr followed by the addition of 3.33 uM bradykinin like substrate by spectrofluorometry assay
T1 sequence (P00800 whole entry): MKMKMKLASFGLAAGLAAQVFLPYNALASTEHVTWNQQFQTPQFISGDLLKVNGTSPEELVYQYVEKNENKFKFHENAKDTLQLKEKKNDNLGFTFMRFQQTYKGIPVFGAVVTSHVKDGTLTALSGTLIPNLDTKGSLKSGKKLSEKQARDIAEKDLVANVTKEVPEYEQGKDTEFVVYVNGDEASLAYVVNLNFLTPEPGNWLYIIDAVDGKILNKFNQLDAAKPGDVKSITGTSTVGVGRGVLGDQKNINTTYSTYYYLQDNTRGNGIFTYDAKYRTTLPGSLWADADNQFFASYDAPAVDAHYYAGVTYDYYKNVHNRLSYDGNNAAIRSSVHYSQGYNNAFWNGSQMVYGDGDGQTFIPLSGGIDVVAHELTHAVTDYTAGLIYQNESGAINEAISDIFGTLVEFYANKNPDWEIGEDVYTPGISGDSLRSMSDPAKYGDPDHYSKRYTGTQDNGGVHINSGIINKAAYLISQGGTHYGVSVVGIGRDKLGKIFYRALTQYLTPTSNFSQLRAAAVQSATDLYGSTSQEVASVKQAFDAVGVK

The chains behind the UniProt entries cited, without tags or fusion partners. Where a name states a change or a piece, a line headed by the entry shows the natural chain unless it says otherwise.
UniProt P14756: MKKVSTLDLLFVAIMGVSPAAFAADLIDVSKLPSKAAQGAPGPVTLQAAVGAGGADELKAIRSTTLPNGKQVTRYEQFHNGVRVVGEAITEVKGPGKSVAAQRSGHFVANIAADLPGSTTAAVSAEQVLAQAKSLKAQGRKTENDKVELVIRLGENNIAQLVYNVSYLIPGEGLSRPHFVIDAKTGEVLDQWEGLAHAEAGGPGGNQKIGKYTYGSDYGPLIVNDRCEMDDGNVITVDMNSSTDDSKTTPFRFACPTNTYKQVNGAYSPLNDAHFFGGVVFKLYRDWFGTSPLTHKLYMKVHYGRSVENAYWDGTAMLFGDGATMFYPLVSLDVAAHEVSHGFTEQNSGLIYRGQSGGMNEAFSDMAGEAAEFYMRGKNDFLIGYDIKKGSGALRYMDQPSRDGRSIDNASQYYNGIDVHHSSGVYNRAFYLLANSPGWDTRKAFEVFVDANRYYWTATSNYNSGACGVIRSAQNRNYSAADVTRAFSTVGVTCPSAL

[2] = target: Thermolysin (Bacillus thermoproteolyticus) (UniProt P00800); test: Inhibition of Bacillus thermoproteolyticus thermolysin pretreated with compound for 15 mins followed by the addition of Abz-Ala-Gly-leu-Ala-p-nitrobenzalamide as substrate by spectrofluorometry
Elastase = Elastase (Pseudomonas aeruginosa (strain ATCC 15692 / PAO1 / 1C / PRS 101 / LMG12228), UniProt P14756); test: Inhibition of Pseudomonas aeruginosa pseudolysin pretreated with compound for 1 hr followed by the addition of 1.73 uM bradykinin like substrate by spectrofluorometry
Thermolysin [3] = target: T1, Thermolysin; test: Inhibition of Bacillus thermoproteolyticus thermolysin pretreated with compound for 15 mins followed by the addition of 75 uM Abz-Ala-Gly-leu-Ala-p-nitrobenzalamide as substrate by spectrofluorometry

Compound	IC50 (Thermolysin [1])	IC50 [2]	IC50 (Elastase)	IC50 (Thermolysin [3])
CC(C)ON([C@@H](C(=O)NO)C(C)C)S(=O)(=O)c1ccc(-c2ccccc2)cc1	800 µM	57 µM	798 µM	416 µM
COc1ccc(S(=O)(=O)N(CC(=O)NO)OC23CC4CC(CC(C4)C2)C3)cc1	438 µM	51 µM	142 µM	90 µM
CC(C)CN([C@@H](C(=O)NO)C(C)C)S(=O)(=O)c1ccc(-c2ccccc2)cc1	608 µM	29 µM	226 µM	243 µM
